Molecular target: TYK2 (Homo sapiens, UniProt P29597)
Experiment: JAK kinase inhibitory activity, HTRF biochemical assay
Experimental: The compounds of the above embodiments were applied to the detection and screening of JAK kinase inhibitory activity.
A corresponding volume of DMSO was added to each well of a first 96-well plate. 20-30 μL of 100-200 μM stock solution of different test compounds were added to each well. The mixture was shaken and mixed for 3 min. All of the compounds were subjected to 3× serial dilution. 60-80 μL Kinase buffer was added to each well of a second 96-well plate, and 1-2 μL of the solution taken from each well of the first 96-well plate was added to the corresponding well of the second 96-well plate. The mixture was shaken and mixed for 3 min. 5 μL of compound dilution taken from each well of the second compound dilution plate was transferred to the corresponding well of a 384-well test plate. 1-2 μL TK Substrate-biotin was added to each well of the test plate. 1-2 μL of enzyme mixture was added to each well. At the same time, a blank well without enzyme was set. 1-2 μL of ATP solution was added to each well, the plate was sealed and reacted at room temperature. The reaction time was as follows: JAK1: 2 h, JAK2: 30 min, JAK3: 30 min, and TYK2: 50 min. […]
The percentage of inhibition was calculated based on the following formula: […]

Chains of the proteins cited; added tags and fusions are not shown.
UniProt P29597, whole entry, species assumed: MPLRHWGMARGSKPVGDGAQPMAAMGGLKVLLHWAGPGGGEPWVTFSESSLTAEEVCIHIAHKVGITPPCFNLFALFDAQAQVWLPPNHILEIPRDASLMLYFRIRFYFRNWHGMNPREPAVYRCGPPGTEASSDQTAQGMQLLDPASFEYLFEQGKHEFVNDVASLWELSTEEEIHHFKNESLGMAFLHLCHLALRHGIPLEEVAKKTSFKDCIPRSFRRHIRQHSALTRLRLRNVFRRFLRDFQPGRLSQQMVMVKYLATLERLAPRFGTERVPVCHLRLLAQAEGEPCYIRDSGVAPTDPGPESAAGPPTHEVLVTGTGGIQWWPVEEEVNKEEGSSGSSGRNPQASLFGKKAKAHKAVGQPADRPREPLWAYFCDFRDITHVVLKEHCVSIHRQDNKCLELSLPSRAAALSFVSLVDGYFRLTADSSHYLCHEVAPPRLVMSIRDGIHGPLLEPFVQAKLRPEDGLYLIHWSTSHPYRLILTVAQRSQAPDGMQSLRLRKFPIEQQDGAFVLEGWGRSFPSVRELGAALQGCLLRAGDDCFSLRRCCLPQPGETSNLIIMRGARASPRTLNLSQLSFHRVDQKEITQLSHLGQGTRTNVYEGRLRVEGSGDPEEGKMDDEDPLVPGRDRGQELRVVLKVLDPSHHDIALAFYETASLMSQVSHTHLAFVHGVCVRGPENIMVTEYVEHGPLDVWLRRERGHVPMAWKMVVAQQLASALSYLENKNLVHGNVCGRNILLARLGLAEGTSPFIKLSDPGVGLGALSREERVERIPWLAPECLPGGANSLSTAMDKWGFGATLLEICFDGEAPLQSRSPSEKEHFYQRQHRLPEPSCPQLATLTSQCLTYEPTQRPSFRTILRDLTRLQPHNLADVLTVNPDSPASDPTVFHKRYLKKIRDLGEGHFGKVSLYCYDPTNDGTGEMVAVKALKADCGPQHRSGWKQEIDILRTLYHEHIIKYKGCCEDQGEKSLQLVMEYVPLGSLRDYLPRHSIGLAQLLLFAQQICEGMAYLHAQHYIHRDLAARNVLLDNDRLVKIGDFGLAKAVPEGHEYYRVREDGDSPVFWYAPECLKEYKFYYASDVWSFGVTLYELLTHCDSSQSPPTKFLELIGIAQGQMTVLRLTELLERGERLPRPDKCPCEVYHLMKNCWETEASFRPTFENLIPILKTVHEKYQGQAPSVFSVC

O=C(Nc1nc2cccc(-c3ccc(CN4CCS(=O)(=O)CC4)cc3)n2n1)C1CC1 [Filgotinib, reference compound]
IC50: > 500 nM

— patent US20220274983A1, “JAK KINASE INHIBITOR AND USE THEREOF” (JIANGSU CAREPHAR PHARMACEUTICAL CO., LTD., priority 2019, published 2022)
